Earlier results in PMC10349193 (CPT: Pharmacometrics & Systems Pharmacology, 2023).

Tested on: CYP2C19
Set-up: method as in SimCYP library version 19
Settings: cited from earlier work

CO[C@H]1/C=C/O[C@@]2(C)Oc3c(C)c(O)c4c(O)c(c(/C=N/N5CCN(C)CC5)c(O)c4c3C2=O)NC(=O)/C(C)=C\C=C\[C@H](C)[C@H](O)[C@@H](C)[C@@H](O)[C@@H](C)[C@H](OC(C)=O)[C@@H]1C [Rifampicin]
CYP2C19 Indmax: 5.5/30/0.32/30/1/1
fuinc (CYP2C19 induction): 5.5/30/0.32/30/1/1
